Key:
Staphylococcus aureus = assay: MIC aerobic bacteria, standard agar-dilution assay; assay type: cell-based; details: Staphylococcus aureus S13E, 24 hours
[1] = test system: Peptostreptococcus intermedius; assay: MIC anaerobic bacteria, agar-dilution; assay type: cell-based; details: Peptostreptococcus intermedius 1264

Row | Substance | MIC (Staphylococcus aureus) [µg/mL] | MIC [1] [µg/mL]
1 | A41030 factor C | 0.5 | 0.5
2 | A41030 factor G | 1 | 
